Test: Phase 1 MAD study of ALT-801: adverse events (TEAEs), safety overview
Conditions: M3 2.4 mg ALT-801 (N = 11)

Compound: CC[C@H](C)[C@H](NC(=O)[C@H](Cc1ccccc1)NC(=O)[C@H](CCC(=O)O)NC(=O)[C@@H]1CCCCNC(=O)CC[C@H](NC(=O)[C@H](CC(=O)O)NC(=O)[C@H](CC(C)C)NC(=O)[C@H](Cc2ccc(O)cc2)NC(=O)[C@H](CCCCN)NC(=O)[C@H](CO)NC(=O)[C@H](Cc2ccc(O)cc2)NC(=O)[C@H](CC(=O)O)NC(=O)[C@H](CO)NC(=O)[C@@H](NC(=O)[C@H](Cc2ccccc2)NC(=O)[C@@H](NC(=O)CNC(=O)[C@H](CCC(N)=O)NC(=O)C(C)(C)NC(=O)[C@@H](N)Cc2c[nH]cn2)[C@@H](C)O)[C@@H](C)O)C(=O)N[C@@H](CCCCNC(=O)[C@H]2O[C@@H](OCCCCCCCCCCCCCCCCCC(=O)O)[C@H](O)[C@@H](O)[C@@H]2O)C(=O)N[C@@H](C)C(=O)N[C@@H](C)C(=O)N1)C(=O)N[C@@H](CCC(N)=O)C(=O)N[C@@H](Cc1c[nH]c2ccccc12)C(=O)N[C@@H](CC(C)C)C(=O)N[C@@H](CC(C)C)C(=O)N[C@@H](CCC(N)=O)C(=O)N[C@H](C(N)=O)[C@@H](C)O [ALT-801, pemvidutide]
- TEAE Cough, maximum severity Severe, subjects n: 0
- TEAE Dermatitis contact, maximum severity Mild, subjects %: (27.3%)
- TEAE Dermatitis contact, maximum severity Mild, subjects n: 3
- TEAE Dermatitis contact, maximum severity Moderate, subjects %: (0.0%)
- TEAE Dermatitis contact, maximum severity Moderate, subjects n: 0
- TEAE Dermatitis contact, maximum severity PLT, subjects %: (0.0%)
- TEAE Dermatitis contact, maximum severity PLT, subjects n: 0
- TEAE Dermatitis contact, maximum severity Severe, subjects %: (0.0%)
- TEAE Dermatitis contact, maximum severity Severe, subjects n: 0
- TEAE Eczema, maximum severity Mild, subjects %: (0.0%)
- TEAE Eczema, maximum severity Mild, subjects n: 0
- TEAE Eczema, maximum severity Moderate, subjects %: (0.0%)
- TEAE Eczema, maximum severity Moderate, subjects n: 0
- TEAE Eczema, maximum severity PLT, subjects %: (0.0%)
- TEAE Eczema, maximum severity PLT, subjects n: 0
- TEAE Eczema, maximum severity Severe, subjects %: (0.0%)
- TEAE Eczema, maximum severity Severe, subjects n: 0
- TEAE Hot flush, maximum severity Mild, subjects %: (9.1%)
- TEAE Hot flush, maximum severity Mild, subjects n: 1
- TEAE Hot flush, maximum severity Moderate, subjects %: (0.0%)
- TEAE Hot flush, maximum severity Moderate, subjects n: 0
- TEAE Hot flush, maximum severity PLT, subjects %: (0.0%)
- TEAE Hot flush, maximum severity PLT, subjects n: 0
- TEAE Hot flush, maximum severity Severe, subjects %: (0.0%)
- TEAE Hot flush, maximum severity Severe, subjects n: 0
- TEAE Menorrhagia, maximum severity PLT, subjects %: (0.0%)
- TEAE Menorrhagia, maximum severity PLT, subjects n: 0
- TEAE Oropharyngeal pain, maximum severity Mild, subjects %: (9.1%)
- TEAE Oropharyngeal pain, maximum severity Mild, subjects n: 1
- TEAE Oropharyngeal pain, maximum severity Moderate, subjects %: (0.0%)
- TEAE Oropharyngeal pain, maximum severity Moderate, subjects n: 0
- TEAE Oropharyngeal pain, maximum severity PLT, subjects %: (0.0%)
- TEAE Oropharyngeal pain, maximum severity PLT, subjects n: 0
- TEAE Oropharyngeal pain, maximum severity Severe, subjects %: (0.0%)
- TEAE Oropharyngeal pain, maximum severity Severe, subjects n: 0
- TEAE Papule, maximum severity Mild, subjects %: (0.0%)
- TEAE Papule, maximum severity Mild, subjects n: 0
- TEAE Papule, maximum severity Moderate, subjects %: (0.0%)
- TEAE Papule, maximum severity Moderate, subjects n: 0
- TEAE Papule, maximum severity PLT, subjects %: (0.0%)
- TEAE Papule, maximum severity PLT, subjects n: 0
- TEAE Papule, maximum severity Severe, subjects %: (0.0%)
- TEAE Papule, maximum severity Severe, subjects n: 0
- TEAE Pruritus, maximum severity Mild, subjects %: (0.0%)
- TEAE Pruritus, maximum severity Mild, subjects n: 0
- TEAE Pruritus, maximum severity Moderate, subjects %: (0.0%)
- TEAE Pruritus, maximum severity Moderate, subjects n: 0
- TEAE Pruritus, maximum severity PLT, subjects %: (0.0%)
- TEAE Pruritus, maximum severity PLT, subjects n: 0
- TEAE Pruritus, maximum severity Severe, subjects %: (0.0%)
- TEAE Pruritus, maximum severity Severe, subjects n: 0
- TEAE Rash, maximum severity Mild, subjects %: (0.0%)
- TEAE Rash, maximum severity Mild, subjects n: 0
- TEAE Rash, maximum severity Moderate, subjects %: (0.0%)
- TEAE Rash, maximum severity Moderate, subjects n: 0
- TEAE Rash, maximum severity PLT, subjects %: (0.0%)
- TEAE Rash, maximum severity PLT, subjects n: 0
- TEAE Rash, maximum severity Severe, subjects %: (0.0%)
- TEAE Rash, maximum severity Severe, subjects n: 0
- TEAE Respiratory, thoracic and mediastinal disorders, maximum severity Mild, subjects %: (18.2%)
- TEAE Respiratory, thoracic and mediastinal disorders, maximum severity Mild, subjects n: 2
- TEAE Respiratory, thoracic and mediastinal disorders, maximum severity Moderate, subjects %: (0.0%)
- TEAE Respiratory, thoracic and mediastinal disorders, maximum severity Moderate, subjects n: 0
- TEAE Respiratory, thoracic and mediastinal disorders, maximum severity PLT, subjects %: (0.0%)
- TEAE Respiratory, thoracic and mediastinal disorders, maximum severity PLT, subjects n: 0
- TEAE Respiratory, thoracic and mediastinal disorders, maximum severity Severe, subjects %: (0.0%)
- TEAE Respiratory, thoracic and mediastinal disorders, maximum severity Severe, subjects n: 0
- TEAE Skin and subcutaneous tissue disorders, maximum severity Mild, subjects %: (27.3%)
- TEAE Skin and subcutaneous tissue disorders, maximum severity Mild, subjects n: 3
- TEAE Skin and subcutaneous tissue disorders, maximum severity Moderate, subjects %: (0.0%)
- TEAE Skin and subcutaneous tissue disorders, maximum severity Moderate, subjects n: 0
- TEAE Skin and subcutaneous tissue disorders, maximum severity PLT, subjects %: (0.0%)
- TEAE Skin and subcutaneous tissue disorders, maximum severity PLT, subjects n: 0
- TEAE Skin and subcutaneous tissue disorders, maximum severity Severe, subjects %: (0.0%)
- TEAE Skin and subcutaneous tissue disorders, maximum severity Severe, subjects n: 0
- TEAE Skin lesion, maximum severity Mild, subjects %: (0.0%)
- TEAE Skin lesion, maximum severity Mild, subjects n: 0
- TEAE Skin lesion, maximum severity Moderate, subjects %: (0.0%)
- TEAE Skin lesion, maximum severity Moderate, subjects n: 0
- TEAE Skin lesion, maximum severity PLT, subjects %: (0.0%)
- TEAE Skin lesion, maximum severity PLT, subjects n: 0
- TEAE Skin lesion, maximum severity Severe, subjects %: (0.0%)
- TEAE Skin lesion, maximum severity Severe, subjects n: 0
- TEAE Vascular disorders, maximum severity Mild, subjects %: (9.1%)
- TEAE Vascular disorders, maximum severity Mild, subjects n: 1
- TEAE Vascular disorders, maximum severity Moderate, subjects %: (0.0%)
- TEAE Vascular disorders, maximum severity Moderate, subjects n: 0
- TEAE Vascular disorders, maximum severity PLT, subjects n: 0
- TEAE Vascular disorders, maximum severity Severe, subjects %: (0.0%)
- TEAE Vascular disorders, maximum severity Severe, subjects n: 0

From patent US12171806B2, “Therapeutic regimens and methods for lowering blood glucose and/or body weight using GLP-1R and GCGR balanced agonists” (priority 2021, dated 2024)
